System: S. pneumoniae
Test: In vivo bacteria clearance assay (bacterial counts in bronchoalveolar lavage fluid)
Set-up: species or system mouse
Settings: wt mice treated for 3 days, lavage fluid 24 hours post-infection
Method: Mice were gavaged with GW501516 (4 mg/kg/day) daily for 3 days prior to and every other day after infection. Mice were infected with 5×10^5 CFU of S. pneumoniae. […] Twenty-four hours post-infection, lavage fluid was isolated and analyzed for bacterial counts. […] Mice were gavaged with GW501516 for three days. […] Mice were gavaged with GW501516 for 3 days. Alveolar macrophages were isolated and ROS was determined using FcOxyburst. Data are presented as mean±SEM. *p<0.05.
Ppar-δ floxed animals were generated as described previously^33,34. Ppar-δ mice were crossed to lysozyme cre mice (Jackson laboratory) to generate Ppar-δ^mye−/− mice. Ppar-δ^fl/fl mice were used as wt controls. All mice were maintained on a C57BL/6 background. Mice used for survival studies in FIG. 5 were C57BL/6 mice purchased from Jackson Laboratory. Bone marrow from CSS-17 mice was provided by Dr. Colleen Croniger (Case Western Reserve University). For in vivo killing assays, mice were anesthetized with a ketamine/xylazine solution and infected intranasally with 10^6 CFU S. pneumoniae. 24 hours post infection, mice were sacrificed with isofluorane and Balf was extracted^30. For survival experiments with Ppar-δ^mye−/− mice, animals were infected intranasally with 10^5 CFU S. pneumoniae. C57BL/6 mice used for survival experiments with ligand treatment were infected with 5×10^5 CFU. […]

Cc1cc(SCc2sc(-c3ccc(C(F)(F)F)cc3)nc2C)ccc1OCC(=O)O [GW501516]
bacteria counts in Balf: substantially lower
